{
  "sequences": {"note": "By UniProt entry, the sequences of proteins in these tests, tags left out. Residues count along the entry.", "UniProt P30926, 22-498": "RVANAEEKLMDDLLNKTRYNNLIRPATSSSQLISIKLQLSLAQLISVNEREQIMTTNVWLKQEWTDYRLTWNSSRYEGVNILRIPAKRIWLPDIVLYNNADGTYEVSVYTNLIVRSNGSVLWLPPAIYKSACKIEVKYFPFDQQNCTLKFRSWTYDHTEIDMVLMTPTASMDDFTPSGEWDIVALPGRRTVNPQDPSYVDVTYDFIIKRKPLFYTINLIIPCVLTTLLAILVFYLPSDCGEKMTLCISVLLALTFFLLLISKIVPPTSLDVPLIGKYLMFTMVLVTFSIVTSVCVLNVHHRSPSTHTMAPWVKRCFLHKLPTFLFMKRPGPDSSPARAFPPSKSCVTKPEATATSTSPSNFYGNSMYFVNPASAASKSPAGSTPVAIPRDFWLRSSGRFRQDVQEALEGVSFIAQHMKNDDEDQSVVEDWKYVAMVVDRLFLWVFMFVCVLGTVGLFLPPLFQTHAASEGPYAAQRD", "UniProt P32297, 32-505": "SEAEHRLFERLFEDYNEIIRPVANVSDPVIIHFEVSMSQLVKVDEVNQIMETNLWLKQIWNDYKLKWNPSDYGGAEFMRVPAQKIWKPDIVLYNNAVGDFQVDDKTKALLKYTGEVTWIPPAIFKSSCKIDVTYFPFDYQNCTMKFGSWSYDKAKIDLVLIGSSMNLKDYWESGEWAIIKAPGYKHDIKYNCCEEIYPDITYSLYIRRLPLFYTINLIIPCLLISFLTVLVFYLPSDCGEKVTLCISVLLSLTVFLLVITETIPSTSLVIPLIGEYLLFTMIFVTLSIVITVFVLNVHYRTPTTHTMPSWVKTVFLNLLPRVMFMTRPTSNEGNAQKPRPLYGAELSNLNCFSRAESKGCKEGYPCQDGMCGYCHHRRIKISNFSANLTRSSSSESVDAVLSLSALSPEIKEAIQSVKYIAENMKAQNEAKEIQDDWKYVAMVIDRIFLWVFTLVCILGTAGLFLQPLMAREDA"},
  "source": "patent US8940728B2",
  "about": "(priority 2012, dated 2015)",
  "key": {"[1]": {"molecular_target": "T1, a3b4 nAChRs (Homo sapiens, UniProt P30926+P32297)", "assay": "FLIPR Ca+2 flux assay, epibatidine-induced calcium response, SH-SYSY cells", "type": "cell-based", "procedure": "(§1) The HEK293 (a3b4, a4b2 and a7) and SH-SYSY cell lines (a3b4) expressing nAChRs are used. Validated assays optimized with respect to sensitivity, dynamic range, signal intensity and stability for chemical probe validation and SAR refinement are used.\n(§2) Nicotinic functional assays are performed using the Molecular Devices FLIPR® Calcium 5 Assay Kit. HEK293 cells overexpressing α3β4, α4β2 or α7 (50,000 cells per well in 100 μl growth media) and are plated in clear bottom black walled 96-well microplates and incubated for 24-48 hours at 37° C., 5% CO2 until a 80-90% confluent monolayer is formed. On the day of the assay, 100 μl of Calcium 5 Dye is added to each well. Following addition of dye, cells are incubated at 25° C. for 60 minutes. Following dye loading, 50 μl of a 5× solution of reference or test compound of appropriate concentration range (0.01-30 μM), prepared in 20 mM HEPES pH 7.4 in HBSS, is added to each well. Plates are then transferred to the Molecular Devices Flexstation® which transfers 50 μL of a 5× solution (500 nM) of epibatine to each well to initiate the Ca+2 flux. […] The RFU (relative fluorescence units) in the presence of the test or reference compounds is then expressed on the percent scale. The percent inhibition of epibatidine induced Ca^+2 flux is calculated as follows: % inhibition=100%−% RFU (relative fluorescence units). […]"}, "[2]": {"molecular_target": "T1, a3b4 nAChRs", "assay": "FLIPR Ca+2 flux assay, epibatidine-induced calcium response, A3B4-HEK cells", "type": "cell-based", "procedure": "as §1, §2"}, "[3]": {"molecular_target": "T2, α3β4 nicotinic receptor subtype (Homo sapiens, UniProt P30926+P32297)", "T2 construct": "SH-SYSY cells predominantly express the α3β4 nicotinic receptor subtype; endogenous in cells; host or cells: SH-SYSY (SH-SY5Y) cells", "assay": "cell-based", "settings": "IC50 (uM) Caliper, inhibition of epibatidine-induced calcium response", "text": "as §1"}},
  "note": "pIC50: −log10 of the molar value.",
  "data": [
    {"compound": "CNC1(C)C2CCC(C2)C1(C)C", "note": "(stereo not drawn) [Mecamylamine]", "values": [
      {"measurement": "pIC50", "setting": "[1]", "value": 6.40},
      {"measurement": "pIC50", "setting": "[2]", "value": 5.80},
      {"measurement": "IC50", "setting": "[3]", "value": 0.3, "unit": "µM"}
    ]}
  ]
}
